Experimental data: patent publication US20240092779A1, “USP1 INHIBITORS AND USES THEREOF” (Zentaur Therapeutics USA Inc., priority 2022, published 2024)

Sequences of proteins named here, by UniProt entry; tags and fusion partners are left off.
UniProt O94782, whole entry: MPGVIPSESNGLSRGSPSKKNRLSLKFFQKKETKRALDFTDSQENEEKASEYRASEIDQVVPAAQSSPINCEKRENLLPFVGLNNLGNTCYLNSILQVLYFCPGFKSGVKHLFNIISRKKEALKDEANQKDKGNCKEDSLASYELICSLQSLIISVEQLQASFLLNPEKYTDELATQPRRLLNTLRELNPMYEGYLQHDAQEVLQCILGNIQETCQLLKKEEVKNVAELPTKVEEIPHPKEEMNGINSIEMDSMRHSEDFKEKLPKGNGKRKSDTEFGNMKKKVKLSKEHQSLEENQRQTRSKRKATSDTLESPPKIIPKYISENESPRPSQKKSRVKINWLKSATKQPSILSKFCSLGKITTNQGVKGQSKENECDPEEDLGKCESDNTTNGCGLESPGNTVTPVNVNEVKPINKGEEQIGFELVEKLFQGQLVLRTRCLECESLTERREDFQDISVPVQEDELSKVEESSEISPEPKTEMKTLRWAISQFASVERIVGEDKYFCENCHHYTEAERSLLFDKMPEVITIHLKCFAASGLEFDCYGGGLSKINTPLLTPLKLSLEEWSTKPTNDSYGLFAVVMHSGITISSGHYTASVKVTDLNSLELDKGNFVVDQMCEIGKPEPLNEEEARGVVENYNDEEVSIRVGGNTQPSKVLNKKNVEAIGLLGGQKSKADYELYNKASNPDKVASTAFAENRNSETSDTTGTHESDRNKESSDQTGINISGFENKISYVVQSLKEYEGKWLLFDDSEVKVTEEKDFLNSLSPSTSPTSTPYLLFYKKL
UniProt Q8TAF3, whole entry partner: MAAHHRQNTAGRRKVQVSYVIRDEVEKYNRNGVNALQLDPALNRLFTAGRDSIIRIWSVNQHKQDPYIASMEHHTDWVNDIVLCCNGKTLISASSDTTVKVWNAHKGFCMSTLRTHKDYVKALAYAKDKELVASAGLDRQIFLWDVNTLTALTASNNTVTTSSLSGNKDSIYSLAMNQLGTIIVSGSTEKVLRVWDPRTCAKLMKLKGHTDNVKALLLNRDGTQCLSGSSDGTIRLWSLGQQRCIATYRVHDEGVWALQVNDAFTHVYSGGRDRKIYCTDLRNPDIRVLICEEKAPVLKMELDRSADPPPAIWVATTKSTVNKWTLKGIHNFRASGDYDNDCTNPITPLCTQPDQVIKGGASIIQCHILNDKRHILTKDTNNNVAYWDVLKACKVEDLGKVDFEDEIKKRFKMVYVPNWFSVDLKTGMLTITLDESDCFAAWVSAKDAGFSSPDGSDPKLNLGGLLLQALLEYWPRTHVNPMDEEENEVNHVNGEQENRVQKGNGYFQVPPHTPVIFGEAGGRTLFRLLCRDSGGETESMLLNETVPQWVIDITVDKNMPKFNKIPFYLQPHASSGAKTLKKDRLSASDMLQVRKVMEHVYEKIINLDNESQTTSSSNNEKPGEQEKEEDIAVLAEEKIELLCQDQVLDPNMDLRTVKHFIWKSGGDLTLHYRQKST

Experiments:
HCC1806 Ub-PCNA (USP1) = experiment: USP1 Western Blot Protocol (HCC1806 Ub-PCNA); assay type: cell-based; conditions: read-out: HCC1806 Ub-PCNA, HCC1806 cells, 4 hours
MDA-MB-436 cells = experiment: CTG Protocol (MDA-MB-436 GI50), antiproliferative activity; assay type: cell-based, human; conditions: read-out: MDA-MB-436 GI50; MDA-MB-436 cells (BRCA1 mutation), 7-day incubation, CellTiter-Glo
[1] = target: recombinant USP1/UAF1 enzyme complex (Homo sapiens, UniProt O94782); experiment: Enzyme assay: deubiquitinase fluorometric assay with ubiquitin-Rhodamine substrate; assay type: biochemical; conditions: read-out: enzyme; USP1/UAF1, Ub-Rho110 substrate, 2 hours preincubation, 1 hour reaction

IC50 (HCC1806 Ub-PCNA (USP1)) [nM]	GI50 (MDA-MB-436 cells) [nM]	IC50 [1] [nM]	SMILES
10 to 100	10 to 100	< 10	COc1ncnc(C2CC2)c1-c1ncc2cc(C3(O)CCN(C)CC3)c(=O)n(Cc3ccc(-c4nc(C(F)(F)F)cn4C(C)C)cc3)c2n1
100 to 1000	100 to 1000	10 to 100	COc1ncnc(C2CC2)c1-c1cc2c(cn1)NC(=O)CN2Cc1ccc(-c2nc(C(F)(F)F)cn2C)cc1
10 to 100	10 to 100	10 to 100	COc1ncnc(OC)c1-c1ncc2ccc(=O)n(Cc3ccc(-c4nc(C(F)(F)F)cn4C4CC4)cc3)c2n1 [Compound I-102]
10 to 100	< 10	10 to 100	CCn1cc(C(F)(F)F)nc1-c1ccc(CN2CCOc3cnc(-c4c(OC)ncnc4C4CC4)nc32)cc1
–	10 to 100	10 to 100	COc1ncnc(C2CC2)c1-c1ncc2ccc(=O)n(CC3CCN(c4nc(C(F)(F)F)cn4C4CC4)CC3)c2n1
< 10	10 to 100	10 to 100	COc1cc(Cn2c(=O)ccc3cnc(-c4c(OC)ncnc4OC)nc32)cc(F)c1-c1nc(C(F)(F)F)cn1C(C)C [Compound I-113]
10 to 100	< 10	10 to 100	COc1ncnc(C2CC2)c1-c1ncc2ccc(=O)n(Cc3ccc(-c4nc(C(F)(F)F)cn4C(C)C)c(F)c3OC)c2n1 [Compound I-23, 2-(4-cyclopropyl-6-methoxypyrimidin-5-yl)-8-({3-fluoro-4-[1-isopropyl-4-(trifluoromethyl)imidazol-2-yl]-2-methoxyphenyl}methyl)pyrido[2,3-d]pyrimidin-7-one]
< 10	10 to 100	10 to 100	COc1cc(Cn2c(=O)cnc3cnc(-c4c(OC)ncnc4C4CC4)nc32)cc(F)c1-c1nc(C(F)(F)F)cn1C(C)C [Compound I-107]
–	100 to 1000	10 to 100	COC(=O)c1cc2cnc(-c3c(OC)ncnc3C3CC3)nc2n(Cc2ccc(-c3nc(C(F)(F)F)cn3C)cc2)c1=O
100 to 1000	100 to 1000	100 to 1000	COc1ncnc(C2CC2)c1-c1ncc2c(n1)N(Cc1ccc(-c3nc(C(F)(F)F)cn3C)cc1)CCN2
10 to 100	10 to 100	100 to 1000	CC(C)n1ncc(Cl)c1-c1ncc2ccc(=O)n(Cc3ccc(-c4nc(C(F)(F)F)cn4C4CC4)cc3)c2n1
10 to 100	< 10	10 to 100	O=c1ccc2cnc(-c3c(OC(F)F)ncnc3C3CC3)nc2n1Cc1ccc(-c2nc(C(F)(F)F)cn2C2CC2)cc1 [Compound I-103]
100 to 1000	100 to 1000	100 to 1000	COc1ncnc(C2CC2)c1-c1cc2c(cn1)ncc(=O)n2Cc1ccc(-c2nc(C(F)(F)F)cn2C)cc1
10 to 100	10 to 100	100 to 1000	COc1ncnc(C2CC2)c1-c1ncc2cc(C(C)(C)O)c(=O)n(Cc3ccc(-c4nc(C(F)(F)F)cn4C4CC4)cc3)c2n1 [Compound I-109]
10 to 100	< 10	10 to 100	COc1cc(Cn2c(=O)ccc3cnc(-c4c(OC)ncnc4C4CC4)nc32)cc(F)c1-c1nc(C(F)(F)F)cn1C(C)C [Compound I-22, 2-(4-cyclopropyl-6-methoxypyrimidin-5-yl)-8-({3-fluoro-4-[1-isopropyl-4-(trifluoromethyl)imidazol-2-yl]-5-methoxyphenyl}methyl)pyrido[2,3-d]pyrimidin-7-one]
< 10	10 to 100	10 to 100	CCn1cc(C(F)(F)F)nc1-c1ccc(CN2C(=O)COc3cnc(-c4c(OC)ncnc4C4CC4)nc32)cc1
10 to 100	10 to 100	10 to 100	COc1cc(Cn2c(=O)cnc3cnc(-c4c(OC)ncnc4C4CC4)nc32)ccc1-c1nc(C(F)(F)F)cn1C(C)C [Compound I-118]

IC50 (HCC1806 Ub-PCNA (USP1)) [nM]	GI50 (MDA-MB-436 cells) [nM]	IC50 [1] [nM]	SMILES
10 to 100	10 to 100	10 to 100	COc1ncnc(C2CC2)c1-c1ncc2ncc(=O)n(Cc3ccc(-c4nc(C(F)(F)F)c[nH]4)cc3)c2n1
10 to 100	10 to 100	10 to 100	COc1ncnc(C2CC2)c1-c1ncc2c(n1)N(Cc1ccc(-c3nc(C(F)(F)F)cn3C(C)C)cc1)C(=O)CO2
10 to 100	10 to 100	10 to 100	COc1ncnc(C2CC2)c1-c1ncc2cc(Cl)c(=O)n(Cc3ccc(-c4nc(C(F)(F)F)cn4C4CC4)cc3)c2n1
10 to 100	10 to 100	10 to 100	COc1ncnc(C2CC2)c1-c1cc2c(cn1)OCCN2Cc1ccc(-c2nc(C(F)(F)F)cn2C)cc1
–	100 to 1000	–	COc1ncnc(C2CC2)c1-c1ncc2c(n1)N(Cc1ccc(-c3nc(C(F)(F)F)cn3C)cc1)C(=O)CO2
10 to 100	< 10	< 10	COc1ncnc(C2CC2)c1-c1ncc2cc(C3CCN(C)CC3)c(=O)n(Cc3ccc(-c4nc(C(F)(F)F)cn4C4CC4)cc3)c2n1 [Compound I-111]
10 to 100	10 to 100	< 10	CC(C)n1cc(C(F)(F)F)nc1-c1ccc(Cn2c(=O)c(C3=CCN(C)CC3)cc3cnc(-c4c(OC(F)F)ncnc4C4CC4)nc32)cc1
< 10	< 10	10 to 100	COc1ncnc(C2CC2)c1-c1ncc2ccc(=O)n(Cc3ccc(-c4nc(C(F)(F)F)cn4C4CC4)cc3)c2n1
10 to 100	10 to 100	< 10	COc1ncnc(C2CC2)c1-c1ncc2cc(C3CCN(C)CC3)c(=O)n(Cc3ccc(-c4nc(C(F)(F)F)cn4C)cc3)c2n1
10 to 100	< 10	< 10	COc1ncnc(C2CC2)c1-c1ncc2cc(C3=CCN(C)CC3)c(=O)n(Cc3ccc(-c4nc(C(F)(F)F)cn4C(C)C)cc3)c2n1 [Compound I-106]
–	10 to 100	10 to 100	COc1cc(Cn2c(=O)ccc3cnc(-c4c(OC(F)F)ncnc4C4CC4)nc32)cc(F)c1-c1nc(C(F)(F)F)cn1C1CC1
< 10	10 to 100	10 to 100	COc1ncnc(C2CC2)c1-c1ncc2ccc(=O)n(Cc3ccc(-c4nc(C(F)(F)F)cn4CCN4CCN(C)CC4)cc3)c2n1
10 to 100	10 to 100	10 to 100	COc1ncnc(C2CC2)c1-c1ncc2c(n1)N(Cc1ccc(-c3nc(C(F)(F)F)cn3C(C)C)cc1)CCO2
< 10	< 10	10 to 100	COc1ncnc(C2CC2)c1-c1ncc2ccc(=O)n(Cc3ccc(-n4nc(C(F)(F)F)cc4OC)cc3)c2n1 [Compound I-110]
10 to 100	10 to 100	< 10	CC(C)n1cc(C(F)(F)F)nc1-c1ccc(Cn2c(=O)c(C3CCN(C)CC3)cc3cnc(-c4c(OC(F)F)ncnc4C4CC4)nc32)cc1
10 to 100	10 to 100	10 to 100	COc1ncnc(C2CC2)c1-c1cc2c(cn1)OCC(=O)N2Cc1ccc(-c2nc(C(F)(F)F)cn2C)cc1
< 10	10 to 100	< 10	COc1ncnc(C2CC2)c1-c1ncc2nc(N3CCN(C)CC3)c(=O)n(Cc3ccc(-c4nc(C(F)(F)F)cn4C4CC4)cc3)c2n1 [Compound I-97]
